According to ChEMBL document CHEMBL3352178, “Antidepressant- and anxiolytic-like activity of 7-phenylpiperazinylalkyl-1,3-dimethyl-purine-2,6-dione derivatives with diversified 5-HT₁A receptor functional profile” (Bioorg Med Chem, 2015):

Legend:
Mus musculus [1] = test: Induction of hypothermia in mouse assessed as change in body temperature at 5 mg/kg, ip administered 30 mins before test and measured 60 mins post dose in presence of 0.3 mg/kg, sc 5HT1A receptor antagonist WAY 100635; format: functional, organism-based
Mus musculus [2] = test: Induction of hypothermia in mouse assessed as change in body temperature at 5 mg/kg, ip administered 30 mins before test and measured 30 mins post dose in presence of 0.3 mg/kg, sc 5HT1A receptor antagonist WAY 100635; format: functional, organism-based
Mus musculus [3] = species on record: Mus musculus; settings: 0.3 mg/kg
Mus musculus [4] = species on record: Mus musculus; settings: 0.3 mg/kg; remark: listed apart in the source
Mus musculus [5] = species on record: Mus musculus; settings: 0.3 mg/kg; remark: listed apart in the source
Mus musculus [6] = species on record: Mus musculus; settings: 0.3 mg/kg; remark: listed apart in the source

CCCN(CCC)C1CCc2cccc(O)c2C1 (stereo unspecified)
deltaT (Mus musculus [1]): -0.1 °C | deltaT (Mus musculus [2]): -0.8 °C

COc1ccccc1N1CCN(CCN(C(=O)C2CCCCC2)c2ccccn2)CC1
deltaT (Mus musculus [3]): -0.2 °C | deltaT (Mus musculus [4]): -0.1 °C | deltaT (Mus musculus [5]): 0 °C | deltaT (Mus musculus [6]): -0.1 °C
